Data taken from US20190209539A1, “THIOHYDANTOIN ANDROGEN RECEPTOR ANTAGONISTS FOR THE TREATMENT OF CANCER” (Janssen Pharmaceutica NV, priority 2016, published 2019).

By UniProt entry, the sequences of proteins in these tests, tags left out.
UniProt P10275, whole entry T878A: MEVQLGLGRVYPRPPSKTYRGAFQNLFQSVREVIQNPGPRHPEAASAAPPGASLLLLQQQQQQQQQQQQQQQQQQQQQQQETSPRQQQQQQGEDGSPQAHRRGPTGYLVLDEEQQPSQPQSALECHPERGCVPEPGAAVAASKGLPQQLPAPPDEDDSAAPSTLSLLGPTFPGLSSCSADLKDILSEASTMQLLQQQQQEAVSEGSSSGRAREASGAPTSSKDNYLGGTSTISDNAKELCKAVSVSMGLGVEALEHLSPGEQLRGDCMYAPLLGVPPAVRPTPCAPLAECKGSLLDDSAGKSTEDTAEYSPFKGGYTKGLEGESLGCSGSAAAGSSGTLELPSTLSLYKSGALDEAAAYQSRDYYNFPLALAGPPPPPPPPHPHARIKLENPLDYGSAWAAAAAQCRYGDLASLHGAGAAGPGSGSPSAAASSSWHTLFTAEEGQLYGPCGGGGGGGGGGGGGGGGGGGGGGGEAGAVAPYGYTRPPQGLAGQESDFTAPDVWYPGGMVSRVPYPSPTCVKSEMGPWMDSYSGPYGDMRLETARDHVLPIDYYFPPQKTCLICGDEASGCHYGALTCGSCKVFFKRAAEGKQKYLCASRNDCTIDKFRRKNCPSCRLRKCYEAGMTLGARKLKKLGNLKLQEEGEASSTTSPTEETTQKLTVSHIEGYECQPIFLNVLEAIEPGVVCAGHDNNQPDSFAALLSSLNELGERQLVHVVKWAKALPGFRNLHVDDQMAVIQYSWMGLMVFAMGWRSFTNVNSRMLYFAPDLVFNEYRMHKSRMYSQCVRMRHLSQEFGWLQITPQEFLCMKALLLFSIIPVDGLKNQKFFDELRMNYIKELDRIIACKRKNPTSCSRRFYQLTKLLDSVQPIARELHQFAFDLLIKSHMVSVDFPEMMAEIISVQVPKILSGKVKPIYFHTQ

Legend:
[1] = molecular target: T1, wild-type Androgen Receptor (AR-wt) (Homo sapiens, UniProt P10275); test: LNCaP-AR-wt AG: ARE luciferase reporter assay, agonist mode; format: cell-based; settings: maximum % stimulation (agonist response), % of 1 μM R-1881 max
T1 construct: expressed in transfected cells; host or cells: LNCaP AR (cs) cells with ARE firefly luciferase lentiviral construct

AR (human) = molecular target: T2, AR (human) (Homo sapiens, UniProt P10275, T878A); test: Radioligand binding to AR ([3H]methyltrienolone, LNCaP cells cytosol)
T2 construct: AR (human) (agonist radioligand) LNCaP cells (cytosol); endogenous in cells; host or cells: LNCaP cells (cytosol)
Procedure: Radioligand binding assays were performed with the cell extracts and ligands as detailed below. Complete methodology is contained within the cited publications. Kd values were determined by Non-Specific Incubation Detection Method.
AR (human) (agonist radioligand) LNCaP cells (cytosol)
[^3H]methyltrienolone 1 nM 0.8 nM mibolerone (1 μM) 24 h 4° C. Scintillation counting. Zava, D. T et al.(1979) Endocrinology, 104: 1007-1012.
The results are expressed as a percent of control specific binding measured specific binding *100 control specific binding and as a percent inhibition of control specific binding 100-(measured specific binding*100) control specific binding obtained in the presence of compoundn.
The IC50 values (concentration causing a half-maximal inhibition of control specific binding) and Hill coefficients (nH) were determined by non-linear regression analysis of the competition curves generated with mean replicate values using Hill equation curve fitting.
The inhibition constants (Ki) were calculated using the Cheng Prusoff equation:
wherein L=concentration of radioligand in the assay, and KD=affinity of the radioligand for the receptor. A scatchard plot is used to determine the KD.
Radioligand binding inhibition and affinity calculations were determined using [^3H]-methyltrienolone, [^3H]-dexamethasone and [^3H]-estradiol for AR, GR and ER, respectively. […]

SMILES	LNCaP-AR-wt AG MAX % Stim [1] [%]	Ki (AR (human); Cheng Prusoff, [3H]-methyltrienolone) [nM]	IC50 (AR (human); [3H]-methyltrienolone 1 nM, LNCaP cytosol) [nM]
N#Cc1ncc(N2C(=O)C3(CCC3)N(c3ccc(N4CCNCC4)cc3)C2=S)cc1C(F)(F)F [Cpd 8, 5-[5-oxo-8-(4-piperazin-1-ylphenyl)-7-thioxo-6,8-diazaspiro[3.4]octan-6-yl]-3-(trifluoromethyl)pyridine-2-carbonitrile]	0.2		
N#Cc1ncc(N2C(=O)C3(CCC3)N(c3ccc(O)cc3)C2=S)cc1C(F)(F)F [Cpd 77, 5-[8-(4-hydroxyphenyl)-5-oxo-7-thioxo-6,8-diazaspiro[3.4]octan-6-yl]-3-(trifluoromethyl)pyridine-2-carbonitrile]	0.8		
CN1CCC(Oc2ccc(N3C(=S)N(c4cnc(C#N)c(C(F)(F)F)c4)C(=O)C34CCC4)cc2)CC1 [Cpd 85, 5-[8-[4-[(1-methyl-4-piperidyl)oxy]phenyl]-5-oxo-7-thioxo-6,8-diazaspiro[3.4]octan-6-yl]-3-(trifluoromethyl)pyridine-2-carbonitrile]		8.4	19
